Reference: PubChem BioAssay (Tox21)
Only a part is listed here, and it is no random draw. Results filed as inconclusive are left out. The source made the active and inactive calls. Unless noted, calls come from the whole dose curve; as a rule, active = well fitted curve in the direction sought with a large enough effect in the repeat runs; inconclusive = weak or mixed curves; inactive = flat fitted curve, though single readings scatter.

Amino acid sequences for entries named in this document (tags omitted).
UniProt P04150, whole entry: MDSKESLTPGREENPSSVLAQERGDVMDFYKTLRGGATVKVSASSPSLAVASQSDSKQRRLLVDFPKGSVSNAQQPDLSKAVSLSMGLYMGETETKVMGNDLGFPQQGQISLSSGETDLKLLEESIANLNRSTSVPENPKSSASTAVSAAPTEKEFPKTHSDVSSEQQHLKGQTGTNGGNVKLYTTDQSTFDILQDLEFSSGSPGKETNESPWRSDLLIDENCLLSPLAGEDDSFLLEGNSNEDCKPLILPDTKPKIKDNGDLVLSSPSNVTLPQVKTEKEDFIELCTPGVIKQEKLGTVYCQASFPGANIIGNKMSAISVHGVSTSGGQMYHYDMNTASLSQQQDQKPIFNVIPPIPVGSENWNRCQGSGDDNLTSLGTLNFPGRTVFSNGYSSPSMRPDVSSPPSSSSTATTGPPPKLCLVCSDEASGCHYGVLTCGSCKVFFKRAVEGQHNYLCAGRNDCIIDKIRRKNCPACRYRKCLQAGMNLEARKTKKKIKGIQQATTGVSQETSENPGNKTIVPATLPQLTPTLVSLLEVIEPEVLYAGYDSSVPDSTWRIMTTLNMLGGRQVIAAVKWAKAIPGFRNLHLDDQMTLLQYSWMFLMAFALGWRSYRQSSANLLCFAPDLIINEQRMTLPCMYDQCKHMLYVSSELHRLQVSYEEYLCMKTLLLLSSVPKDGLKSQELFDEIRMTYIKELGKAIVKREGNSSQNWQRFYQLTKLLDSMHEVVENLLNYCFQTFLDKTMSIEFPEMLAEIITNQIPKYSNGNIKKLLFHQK

Assays:
[1] = qHTS assay to test for compound auto fluorescence at 535 nm (green) in HEK293 cells (AID 720680); conditions: green autofluorescence 485/535 nm
[2] = qHTS assay to test for compound auto fluorescence at 460 nm (blue) in HEK293 cell free culture (AID 720681); conditions: cell-free medium, autofluorescence 405/460 nm (blue)
Outline: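 Compounds were added to cell-free DMEM with 10% FBS and fluorescence read directly. The blue channel used 405 nm excitation and 460 nm emission, with triamterene as the reference fluorophore.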

[3] = qHTS assay to test for compound auto fluorescence at 535 nm (green) in HEK293 cell free culture (AID 720682); conditions: cell-free medium, green autofluorescence 485/535 nm, active compounds read high
Text: (§1) U.S. Tox21 Program National Center for Advancing Translational Sciences [NCATS] NIH Chemical Genomics Center [NCGC] U.S. Environmental Protection Agency [EPA] National Institutes of Environmental Health Sciences [NIEHS] National Toxicology Program [NTP] U.S. Food and Drug Administration [FDA] Tox21 Assay Overview: Compound auto fluorescence often interferes with screening of the compound library against various biological targets and signaling pathways. Some of these compounds may have fluorophoric properties. Such properties may interfere with the assay outputs resulting in false positives and/or negatives. To decrease such complications and ensure the compound activities are relevant in terms of biological response, the Tox21 10K compound library was screened for auto fluorescence. From the fluorophores used as reporter signals in our screening assays, the auto fluorescence equivalencies of compounds against three fluorophores have been evaluated: Triamterene, Fluorescein and Rose Bengal sodium for blue, green and red fluorescence, respectively. The fluorescence intensities were measured using Excitation/Emission wavelengths at 405/460nm, 485/535nm and 540/590nm for blue, green and red labels, respectively. This assay includes the green fluorescence data.
(§2) Tox21 Assay Protocol Summary: 5 uL of culture medium (DMEM containing 10% FBS) per well was dispensed into black wall/clear bottom 1536-well plates using a Multidrop Combi Dispenser (ThermoFisher Scientific, Waltham, MA). After 23 nL compound or DMSO vehicle was transferred into assay plate by a pintool work station (Kalypsys, San Diego, CA), fluorescence intensities in the assay plates were measured by an Envision (PerkinElmer, Shelton, CT) plate reader using three labels for measuring blue, green and red fluorescence at […] 460, 535 and 590nm respectively.

[4] = qHTS assay to test for compound auto fluorescence at 590 nm (red) in HEK293 cell free culture (AID 720683); conditions: cell-free medium autofluorescence, Ex540/Em590 red
Text: as §1, with “the red” for “the green”
as §2

[5] = qHTS assay to test for compound auto fluorescence at 590 nm (red) in HepG2 cell free culture (AID 720684); conditions: cell-free medium autofluorescence, red 540/590 nm
Outline: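 Compound was pinned into wells holding MEM with 10% FBS and no cells, and red fluorescence was read at Ex/Em 540/590 nm. Signal is expressed as auto fluorescence equivalency relative to Rose Bengal sodium.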

[6] = qHTS assay to test for compound auto fluorescence at 460 nm (blue) in HepG2 cell free culture (AID 720685); conditions: Cell-free culture medium, blue autofluorescence 405/460 nm
Outline: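 Compound (23 nL) or DMSO pinned into cell-free MEM with 10% FBS; blue fluorescence read at 405/460 nm excitation/emission, expressed as auto-fluorescence equivalency to triamterene.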

[7] = qHTS assay to test for compound auto fluorescence at 535 nm (green) in HepG2 cell free culture (AID 720686); conditions: Cell-free medium, green autofluorescence 485/535 nm
[8] = qHTS assay to test for compound auto fluorescence at 460 nm (blue) in HepG2 cells (AID 720687); conditions: autofluorescence 405/460 nm, 1 h
Outline: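 HepG2 cells in MEM with 10% FBS, attached overnight at 37 C, were exposed to compound or DMSO for 1 hr at 37 C, 5% CO2. Blue fluorescence was read at 405/460 nm, with triamterene as reference fluorophore.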

[9] = target: Glucocorticoid receptor (Homo sapiens) (UniProt P04150); test: qHTS assay to identify small molecule agonists of the glucocorticoid receptor (GR) signaling pathway (AID 720691; active = well fitted activation curve with a large enough effect in the signal ratio in the repeat runs, not every such curve was filed as active; the % refers to the signal ratio); conditions: GR-bla HeLa, beta-lactamase reporter ratio, 18 h; at 62.4 µM (top of the series)
[10] = target: Glucocorticoid receptor (Homo sapiens) (UniProt P04150); test: qHTS assay to identify small molecule antagonists of the glucocorticoid receptor (GR) signaling pathway (AID 720692; active = well fitted inhibition curve with a large enough effect in the signal ratio in the repeat runs, not every such curve was filed as active; the % refers to the signal ratio); conditions: GR-bla HeLa, beta-lactamase FRET ratio, dexamethasone-stimulated, 18 h; at 58.5 µM (top of the series)
% is set by controls: 0 for no effect and ±100 for the full control effect.

CCC(=O)N(c1ccccc1)C1(COC)CCN(CCn2nnn(CC)c2=O)CC1
inactive: fluorescence, % of fluorescein ([1]; at 91.3 µM (top of the series)) 0.0123% | fluorescence, % of fluorescent control ([2]; at 91.3 µM (top of the series)) -0.159% | activity change ([3]; at 91.3 µM (top of the series)) 0.0459% | fluorescence, % of fluorescent control ([4]; at 91.3 µM (top of the series)) -0.471% | fluorescence, % of Rose Bengal ([5]; at 91.3 µM (top of the series)) -0.0772% | fluorescence, % of fluorescent control ([6]; at 91.3 µM (top of the series)) 0.0163% | fluorescence, % of fluorescein control ([7]; at 91.3 µM (top of the series)) 0.0168% | fluorescence, % of fluorescent control ([8]; at 91.3 µM (top of the series)) -0.195%

CCC(=O)N(c1ccccc1)C1(COC)CCN(CCc2cccs2)CC1
inactive: fluorescence, % of fluorescein ([1]; at 91.3 µM (top of the series)) -0.0434% | fluorescence, % of fluorescent control ([2]; at 91.3 µM (top of the series)) 0.0219% | activity change ([3]; at 91.3 µM (top of the series)) 0.0788% | fluorescence, % of fluorescent control ([4]; at 91.3 µM (top of the series)) 0.353% | fluorescence, % of Rose Bengal ([5]; at 91.3 µM (top of the series)) 0.0245% | fluorescence, % of fluorescent control ([6]; at 91.3 µM (top of the series)) -0.0139% | fluorescence, % of fluorescein control ([7]; at 91.3 µM (top of the series)) 0.0084% | fluorescence, % of fluorescent control ([8]; at 91.3 µM (top of the series)) -0.0847% | activation [9] -3.78% | activity change, negative = inhibition [10] -22.7%

CCC(=O)N(c1ccccc1)C1CCN(CCc2ccccc2)CC1
inactive: fluorescence, % of fluorescein ([1]; at 46 µM (top of the series)) 0.0036% | fluorescence, % of fluorescent control ([2]; at 46 µM (top of the series)) -0.168% | activity change ([3]; at 46 µM (top of the series)) -0.0248% | fluorescence, % of fluorescent control ([4]; at 46 µM (top of the series)) -0.594% | fluorescence, % of Rose Bengal ([5]; at 46 µM (top of the series)) -0.11% | fluorescence, % of fluorescent control ([6]; at 46 µM (top of the series)) -0.0121% | fluorescence, % of fluorescein control ([7]; at 46 µM (top of the series)) 0.008% | fluorescence, % of fluorescent control ([8]; at 46 µM (top of the series)) -0.144% | activation [9] 0.167%

CN(CCCl)CCCl
inactive: fluorescence, % of fluorescein ([1]; at 46 µM (top of the series)) -0.0555% | fluorescence, % of fluorescein ([1]; at 91.3 µM (top of the series)) 0.008% | fluorescence, % of fluorescent control ([2]; at 46 µM (top of the series)) -0.0378% | fluorescence, % of fluorescent control ([2]; at 91.3 µM (top of the series)) -0.0763% | activity change ([3]; at 46 µM (top of the series)) 0.0802% | activity change ([3]; at 91.3 µM (top of the series)) -0.127% | fluorescence, % of fluorescent control ([4]; at 46 µM (top of the series)) -0.337% | fluorescence, % of fluorescent control ([4]; at 91.3 µM (top of the series)) -0.451% | fluorescence, % of Rose Bengal ([5]; at 46 µM (top of the series)) -0.308% | fluorescence, % of Rose Bengal ([5]; at 91.3 µM (top of the series)) -0.476% | fluorescence, % of fluorescent control ([6]; at 46 µM (top of the series)) -0.005% | fluorescence, % of fluorescent control ([6]; at 91.3 µM (top of the series)) -0.0814% | fluorescence, % of fluorescein control ([7]; at 46 µM (top of the series)) -0.0627% | fluorescence, % of fluorescein control ([7]; at 91.3 µM (top of the series)) -0.0098% | fluorescence, % of fluorescent control ([8]; at 46 µM (top of the series)) -0.2% | fluorescence, % of fluorescent control ([8]; at 91.3 µM (top of the series)) 0.0122% | activation [9] -8.45%

O=[N+]([O-])C(Cl)(Cl)Cl
inactive: fluorescence, % of fluorescein ([1]; at 91.3 µM (top of the series)) -0.0986% | fluorescence, % of fluorescent control ([2]; at 91.3 µM (top of the series)) -0.132% | activity change ([3]; at 91.3 µM (top of the series)) 0.0968% | fluorescence, % of fluorescent control ([4]; at 91.3 µM (top of the series)) 0.349% | fluorescence, % of Rose Bengal ([5]; at 91.3 µM (top of the series)) 0.0939% | fluorescence, % of fluorescent control ([6]; at 91.3 µM (top of the series)) 0.17% | fluorescence, % of fluorescein control ([7]; at 91.3 µM (top of the series)) 0.0007% | fluorescence, % of fluorescent control ([8]; at 91.3 µM (top of the series)) -0.0043% | activation [9] 1.27% | activity change, negative = inhibition [10] 3.92%
